Values of other authors in US20190133903A1, “Oral Compositions Containing Zinc, Stannous and Fluoride Ion Sources” (Colgate-Palmolive Company, priority 2014, published 2019).
Like-named read-outs stand apart in the source and are kept apart here.

Question: Which Solubility (0° C.) does the source give for Stannous Fluoride here?
Answer: The Solubility was 31 g/100mL.

Question: What about the Solubility (20° C.) of the same substance?
Answer: Its Solubility is 35 g/100 mL.
